# Tests used:
# BRD4 ET domain [1] = biological target: T1, BRD4 ET domain (Homo sapiens, UniProt O60885); conditions: ITC, NSD3 peptide; ref [33]; cited from earlier work
# T1 construct: His-tag (cleaved yes); made in house; host or cells: Escherichia coli BL21-CodonPlus (pRIL)
# BRD4 ET domain [2] = biological target: T1, BRD4 ET domain; test: Isothermal titration calorimetry (ITC) of the ET domain with peptides; assay type: binding; conditions: 20 °C
# full-length JMJD6 = test: Differential scanning fluorimetry (thermal shift) of full-length JMJD6; assay type: binding
# [3] = tested on: BRD4 and H4ac interaction; test: Co-immunoprecipitation with added nucleic acid: BRD4 binding to H4ac; conditions: double-transfected HEK293T lysate, different amounts of ssRNA
# [4] = tested on: BRD4 and NSD3 interaction; test: Co-immunoprecipitation with added nucleic acid: BRD4 binding to NSD3; conditions: double-transfected HEK293T lysate, increasing ssRNA concentration
substance,measurement,setting,value
"EIKLKITKTIQN [NSD3 peptide, PDB ID 2NCZ]",TΔS (entropy change),BRD4 ET domain [1],8.0 kcal/mol
same,ΔH (enthalpy change),BRD4 ET domain [1],2.85 kcal/mol
KWTLERAKRKYRN [JMJD6 L90A],ITC binding affinity (Kd),"BRD4 ET domain [2]; PBS with 0.5 mM dithiothreitol pH 7.4, protein 0.5 mM in cell, peptide 7.5 mM in syringe, one set of sites",No Binding
same,binding to the ET domain by ITC (in words),"BRD4 ET domain [2]; PBS with 0.5 mM dithiothreitol pH 7.4, versus wild type JMJD6 peptide",nearly abolish the binding to the ET domain
"ssDNA: 5′-TTTCTAGATCAGGAGCTGTCGGAAGCTATCC-3′; 31 nt (DNA, backbone not given here)",JMJD6 interaction by thermal shift (in words),"full-length JMJD6; nucleic acid 1 μM, JMJD6 1 μM, PBS pH 7.4, with or without ET domain for dsRNA",does not bind
"ssRNA: 5′-AUACGAUGCUUUACGGUGCUAUUUUGU-3′; 27 nt (RNA, backbone not given here)",BRD4 binding to H4ac on addition of ssRNA (in words),[3],remains unchanged
same,BRD4 binding to NSD3 on addition of ssRNA (in words),[4],appears to be weaker when ssRNA concentration increases
same,melting temperature Tm of JMJD6 with ssRNA,"full-length JMJD6; 1 μM ssRNA, 1 μM JMJD6, PBS pH 7.4, SYPRO Orange, mean, n = 3",40.1 °C
same,decrease in JMJD6 melting temperature,"full-length JMJD6; 1 μM ssRNA, 1 μM JMJD6, versus free JMJD6",7.9 °C

# From article PMC5701133, “Structural Mechanism of the Oxygenase JMJD6 Recognition by the Extraterminal (ET) Domain of BRD4” (Scientific Reports, 2017)
